# Assay: Selectivity ratio of IC50 for rabbit CaV1.2alpha1C to IC50 for rat CaV1.3alpha1D
# Procedure, shortened: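 Selectivity is defined as […] the ratio of the CaV1.2 IC50 to the CaV1.3 IC50. Both IC50s come from the Fluo-8 FLIPR calcium influx assay in stably transfected HEK293 cells, each run in triplicate and fitted to a one-site sigmoidal model.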
row,SMILES,Ratio IC50
1,C[C@H](c1cccc2ccccc12)N1C(=O)CC(=O)N(C2CCCC2)C1=O,1.3
2,CC1(C)CCC(N2C(=O)CC(=O)N(CCc3cccc(Cl)c3)C2=O)C1 (stereo not drawn),7.7
3,O=C1CC(=O)N(C2CCCc3ccccc32)C(=O)N1C1CCCC1 (stereo not drawn),1
4,CC1CCC(N2C(=O)CC(=O)N(CCc3cccc(Cl)c3)C2=O)CC1 (stereo not drawn),1.3
5,O=C1CC(=O)N(C2CCCC2)C(=O)N1CCC(c1ccccc1)c1ccccc1,1.2
6,C[C@@H]1[C@@H](C)CC[C@@H]1N1C(=O)CC(=O)N(CCc2cccc(Cl)c2)C1=O,4.3
7,C[C@@H]1CCC[C@@H]1N1C(=O)CC(=O)N(CCc2ccc(Cl)cc2)C1=O,1.7
8,CO[C@H]1CCC[C@@H]1N1C(=O)CC(=O)N(CCc2cccc(Cl)c2)C1=O,1.1
9,CC(CN1C(=O)CC(=O)N(C2CC3CCC2C3)C1=O)c1ccc(Cl)cc1 (racemic),2.4
10,CC(C)c1ccc(CCN2C(=O)CC(=O)N(C3CCCC3)C2=O)cc1,1.5
11,CC(C)C(=O)O[C@H]1CCC[C@@H]1N1C(=O)CC(=O)N(CCc2cccc(Cl)c2)C1=O,0.9
12,O=C1CC(=O)N(C2CCCC2)C(=O)N1Cc1cccc(Cl)c1,1.1
13,O=C1CC(=O)N(C2CC3CCC2C3)C(=O)N1CCc1cc(C(F)(F)F)cc(C(F)(F)F)c1 (mixture of isomers),2.2
14,O=C1CC(=O)N(C2CC3CCC2C3)C(=O)N1CCc1cccc(C(F)(F)F)c1 (racemic),40.8
15,O=C(OCc1ccccc1)N1CC[C@H](N2C(=O)CC(=O)N(CCc3cccc(Cl)c3)C2=O)C1,0.7
16,O=C1CC(=O)N(C2CCCC2)C(=O)N1CCc1cc(Cl)cc(Cl)c1,2.3
17,CCC1CCC(N2C(=O)CC(=O)N(CCc3ccc(Cl)cc3)C2=O)C1 (racemic),4.4
18,CC1(C)CCC[C@@H]1N1C(=O)CC(=O)N(CCc2ccc(Cl)cc2)C1=O,1.4
19,COC(=O)C(Cc1ccc(Cl)cc1)N1C(=O)CC(=O)N(C2CCCC2)C1=O (stereo not drawn),1.8
20,COC(=O)C1(N2C(=O)CC(=O)N(CCc3cccc(Cl)c3)C2=O)CCCC1,1.1
21,CC1(C)CCC(N2C(=O)CC(=O)N(CCc3ccc(Cl)cc3)C2=O)C1 (stereo not drawn),6.8
22,CCC(CC)N1C(=O)CC(=O)N(CCc2cccc(Cl)c2)C1=O,2.2
23,C[C@H](c1cccc2ccccc12)N1C(=O)CC(=O)N(CCc2cccc(Cl)c2)C1=O,0.9
24,CC(=O)OCC1(N2C(=O)CC(=O)N(CCc3cccc(Cl)c3)C2=O)CCCC1,0.7
25,CC(C)C(=O)OCC1(N2C(=O)CC(=O)N(CCc3cccc(Cl)c3)C2=O)CCCC1,0.9
26,O=C1CC(=O)N(C2CCCC2)C(=O)N1Cc1ccc(Cl)cc1,2.9
27,O=C1CC(=O)N(C2CC3CCC2C3)C(=O)N1CCc1cc(Cl)cc(Cl)c1 (racemic),1.7

row,SMILES,Ratio IC50
1,CC(Cc1ccc(Cl)cc1)N1C(=O)CC(=O)N(C2CC3CCC2C3)C1=O (racemic),1.1
2,O=C1CC(=O)N([C@@H]2C[C@@H]3CC[C@H]2C3)C(=O)N1CCc1cccc(C(F)(F)F)c1,36
3,COC(=O)[C@@H](Cc1ccccc1)N1C(=O)CC(=O)N(C2CCCC2)C1=O,0.8
4,CC1CCC(N2C(=O)CC(=O)N(CCc3ccc(Cl)cc3)C2=O)C1 (stereo not drawn),2.1
5,C[C@H]1CCC[C@@H]1N1C(=O)CC(=O)N(CCc2ccc(Cl)cc2)C1=O (racemic),3.3
6,CC1(C)CCC[C@H]1N1C(=O)CC(=O)N(CCc2ccc(Cl)cc2)C1=O,1
7,O=C1CC(=O)N(C2Cc3ccccc3C2)C(=O)N1C1CCCC1,1.1
8,CC(C)OC(=O)[C@H]1CC[C@@H](N2C(=O)CC(=O)N(CCc3cccc(Cl)c3)C2=O)C1,0.8
9,C[C@@H]1[C@@H](N2C(=O)CC(=O)N(CCc3ccc(Cl)cc3)C2=O)C[C@H]2C[C@@H]1C2(C)C,1.3
10,CC(C)(CN1C(=O)CC(=O)N(C2CCCC2)C1=O)c1cccc(C(F)(F)F)c1,1.9
11,C[C@H]1CCC[C@H]1N1C(=O)CC(=O)N(CCc2ccc(Cl)cc2)C1=O,3.7
12,O=C1CC(=O)N(C2CCc3ccccc32)C(=O)N1C1CCCC1 (stereo not drawn),1.2
13,CCC1CCC(N2C(=O)CC(=O)N(CCc3cccc(Cl)c3)C2=O)C1 (stereo not drawn),2
14,O=C1CC(=O)N(C2CCCC2)C(=O)N1CCc1cccc(Cl)c1,> 100
15,CCOC(=O)[C@@H]1CCC[C@@H]1N1C(=O)CC(=O)N(CCc2cccc(Cl)c2)C1=O,1
16,C[C@H]1CCCC[C@H]1N1C(=O)CC(=O)N(CCc2cccc(Cl)c2)C1=O,1
17,CC(CN1C(=O)CC(=O)N(C2CCCC2)C1=O)c1cccc(Cl)c1 (stereo not drawn),5
18,CC1(C)CCC[C@H]1N1C(=O)CC(=O)N(CCc2cccc(C(F)(F)F)c2)C1=O,1.2
19,O=C1CC(=O)N(C2CCCC2)C(=O)N1CCc1ccc(-c2ccccc2)cc1,1.2
20,CC1CCC(N2C(=O)CC(=O)N(CCc3ccc(Cl)cc3)C2=O)CC1 (stereo not drawn),2.7
21,C[C@H]1CCCC[C@H]1N1C(=O)CC(=O)N(CCc2ccc(Cl)cc2)C1=O,1.4
22,CC1(C)[C@@H]2CC[C@H](CN3C(=O)CC(=O)N(CCc4cccc(Cl)c4)C3=O)[C@H]1C2,1.2
23,C[C@@H](C1CCCCC1)N1C(=O)CC(=O)N(CCc2cccc(Cl)c2)C1=O,> 29
24,CC1CCC(N2C(=O)CC(=O)N(CCc3cccc(Cl)c3)C2=O)C1 (stereo not drawn),10
25,C[C@H](C1CCCCC1)N1C(=O)CC(=O)N(CCc2cccc(Cl)c2)C1=O,> 10
26,CC(C)(CN1C(=O)CC(=O)N(C2CC3CCC2C3)C1=O)c1cccc(Cl)c1 (mixture of isomers),1.2

# Reference: ChEMBL document CHEMBL2380260, “Structure-activity relationship of N,N'-disubstituted pyrimidinetriones as Ca(V)1.3 calcium channel-selective antagonists for Parkinson's disease” (J Med Chem, 2013)
